The record followed here is patent publication US20160002247A1, “8-SUBSTITUTED IMIDAZOPYRIMIDINONE DERIVATIVE HAVING AUTOTAXIN INHIBITORY ACTIVITY” (THE UNIVERSITY OF TOKYO, priority 2013, published 2016).

In test [1] the target is T1, Human autotaxin enzyme (Homo sapiens, UniProt Q13822). Briefly: Evaluation of autotaxin inhibitor, Method C (Test Example 3): 18:0 Lyso PC, choline assay, Resorufin fluorescence. The settings on record: read-out: Inhibitory Activity (autotaxin enzyme inhibitory activity, IC50 class), Assay Method C (Test Example 3), 18:0 Lyso PC substrate. As to the method: (Method C) Evaluation of Autotaxin Inhibitor
Solution B containing 100 mM Tris-HCl buffer (pH7.5), 150 mM NaCl, 5 mM MgCl2 and 0.05% Triton X-100 was prepared. Human autotaxin enzyme (purchased from R&D System) was diluted with Solution B, and 2.5 μL of which was added to a solution of test compound in DMSO. Furthermore, 2.5 μl of 200 μM 18:0 Lyso PC (purchased from Avanti Polar Lipids) in Solution B was added and allowed to react at room temperature for 2 hours. After completion of the reaction, 15 μL of the coline assay reagent (100 mM Tris-HCl buffer (pH7.5), 5 mM MgCl2, 77 μg/mL choline oxidase, 10 μg/mL peroxidase, 25 μM 10-acetyl-3,7-dihydroxyphenoxazine and excess autotaxin inhibitor) was added and allowed to react at room temperature for 20 minutes. The fluorescent dye Resorufin, which was produced by the reaction, was detected. The fluorescence was detected using ViewLux (PerkinElmer, Inc.) with an excitation wavelength of 531 nm and a fluorescence wavelength of 598 nm.
The percent inhibition of the test compound was calculated by assuming the sample with no test compound as 0% inhibition and the sample with no enzyme as 100% inhibition, and the percent inhibitions at different concentrations of the test compound were plotted to obtain a concentration-dependent curve.

For test [2], the target named is T1, Human autotaxin enzyme. Briefly: Evaluation of autotaxin inhibitor, Method B (Test Example 2): TG-mTMP fluorescence. The format is biochemical. The settings on record: read-out: Inhibitory Activity (autotaxin enzyme inhibitory activity, IC50 class), Assay Method B (Test Example 2).

With `CCCCCn1c(N2CCC[C@H]2C(=O)NC(C)(C)CC(=O)OCC)cc(=O)n2cc(-c3ccc(Cl)cc3)nc12`, on Human autotaxin enzyme [1], the IC50 – broadly, the concentration that gives 50% inhibition – was in the range of 10 to 100 nM.

Regarding `CCCCCn1c(N2CCCC2CCC(C)C)cc(=O)n2cc(-c3ccc(Cl)cc3)nc12` (centres unmarked), on Human autotaxin enzyme [2], the IC50 fell in the range of 10 to 100 nM.
